Assay [1] concerns the target T1, Xaa-Pro dipeptidase (Homo sapiens) (UniProt P12955).
T1 sequence (whole entry): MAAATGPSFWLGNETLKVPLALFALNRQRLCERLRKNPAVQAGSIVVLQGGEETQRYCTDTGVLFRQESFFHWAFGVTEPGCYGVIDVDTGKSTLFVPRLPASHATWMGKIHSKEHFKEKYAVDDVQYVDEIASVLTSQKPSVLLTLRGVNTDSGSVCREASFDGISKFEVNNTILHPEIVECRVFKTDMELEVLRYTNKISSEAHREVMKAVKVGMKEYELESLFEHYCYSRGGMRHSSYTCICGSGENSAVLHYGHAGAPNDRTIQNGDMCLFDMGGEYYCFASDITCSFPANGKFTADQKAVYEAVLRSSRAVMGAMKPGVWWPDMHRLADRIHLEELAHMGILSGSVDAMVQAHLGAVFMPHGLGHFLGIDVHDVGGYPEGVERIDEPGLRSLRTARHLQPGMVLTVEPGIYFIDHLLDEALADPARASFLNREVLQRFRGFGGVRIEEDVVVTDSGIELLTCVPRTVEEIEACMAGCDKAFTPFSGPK
Description: Inhibition of prolidase (unknown origin) at 5 uM relative to control.

Assay [2] relates to Hathewaya histolytica. The assay is described as follows: Inhibition of collagen biosynthesis Clostridium histolyticum assessed as reduction in collagen formation at 30 uM by spectrophotometric analysis. The assay is classed as functional.
Assay [3] has as its target T1, Xaa-Pro dipeptidase (Homo sapiens). The assay is described as follows: Inhibition of prolidase (unknown origin) at 0.05 uM relative to control.
For assay [4] the target is unchanged. The assay is described as follows: Inhibition of prolidase (unknown origin) at 0.03 uM relative to control.
The target is the same in assay [5]. Description: Inhibition of prolidase (unknown origin) at 0.01 uM relative to control.
Assay [6] has the same target. The assay is described as follows: Inhibition of prolidase (unknown origin) at 1 uM relative to control.
Assay [7] shares this target. The assay is described as follows: Inhibition of prolidase (unknown origin) at 2 uM relative to control.
For assay [8] the target is unchanged. The assay is described as follows: Inhibition of prolidase (unknown origin) at 0.5 uM relative to control.
For assay [9] the target is unchanged. Description: Inhibition of prolidase (unknown origin) at 200 uM relative to control.
Assay [10] has the same target. Description: Inhibition of prolidase (unknown origin) at 10 microg/ml relative to control. The conditions noted are these: dose 10.0 µg/ml.
Assay [11] deals with Hathewaya histolytica. Description: Inhibition of collagen biosynthesis Clostridium histolyticum assessed as reduction in collagen formation at 5 microg/ml by spectrophotometric analysis. The assay is classed as functional. The settings on record: dose 5.0 µg/ml.
Assay [12] deals with T1, Xaa-Pro dipeptidase (Homo sapiens). The assay is described as follows: Inhibition of prolidase (unknown origin) at 100 uM relative to control.

In ChEMBL document CHEMBL5576103, “Targeting prolidase. A survey of the literature data to depict a structure-activity relationship frame and to address future studies for drug development” (Bioorg Med Chem, 2024) one finds inhibition data, which are given here for eight compounds.

`CC(=O)Oc1ccccc1C(=O)O`: the inhibition in [1] came out at 45%.
On to `O=C(O)[C@H]1O[C@@H](Oc2cc(O)c3c(=O)cc(-c4ccc(O)cc4)oc3c2)[C@H](O)[C@@H](O)[C@@H]1O`, for which, in the assay on Hathewaya histolytica [2], the inhibition worked out at 10%.
Regarding `COC(=O)c1ccc(O)cc1`, the inhibition was 80% in [3], 66.5% in assay [4] and 32.5% in [5].
Regarding `Cn1c(=O)c2c(ncn2C)n(C)c1=O`, the inhibition in assay [6] was 17.5%; in assay [7] it was 28.8%; in assay [8], 38.8%.
For the compound `COC(=O)[C@H]1O[C@@H](Oc2cc(O)c3c(=O)cc(-c4ccc(O)cc4)oc3c2)[C@H](O)[C@@H](O)[C@@H]1O`, the inhibition with Hathewaya histolytica [2] was determined as 10%.
Compound `C=CCCCCCC1OC1C/C=C\C/C=C/CC` (stereo not drawn) yielded an inhibition in [9] of 55%.
For the compound `C=C(C)[C@@H]1CC[C@]2(C(=O)O)CC[C@]3(C)[C@H](CC[C@@H]4[C@@]5(C)CC[C@H](O)C(C)(C)[C@@H]5CC[C@]43C)[C@@H]12`, the inhibition (in assay [10]; with Hathewaya histolytica [11]) was 50% throughout.
On to `O=C(CCc1ccccc1)NCC(=O)N1CCC[C@H]1C(=O)Nc1ccc2ccc(=O)oc2c1`, for which the inhibition in [12] was determined as 91%.
